# Laboratory results taken from article PMC5947877 (Phytomedicine : international journal of phytotherapy and …, 2017).
# Amino acid sequences for entries named in this document (tags omitted).
# UniProt P21397, whole entry: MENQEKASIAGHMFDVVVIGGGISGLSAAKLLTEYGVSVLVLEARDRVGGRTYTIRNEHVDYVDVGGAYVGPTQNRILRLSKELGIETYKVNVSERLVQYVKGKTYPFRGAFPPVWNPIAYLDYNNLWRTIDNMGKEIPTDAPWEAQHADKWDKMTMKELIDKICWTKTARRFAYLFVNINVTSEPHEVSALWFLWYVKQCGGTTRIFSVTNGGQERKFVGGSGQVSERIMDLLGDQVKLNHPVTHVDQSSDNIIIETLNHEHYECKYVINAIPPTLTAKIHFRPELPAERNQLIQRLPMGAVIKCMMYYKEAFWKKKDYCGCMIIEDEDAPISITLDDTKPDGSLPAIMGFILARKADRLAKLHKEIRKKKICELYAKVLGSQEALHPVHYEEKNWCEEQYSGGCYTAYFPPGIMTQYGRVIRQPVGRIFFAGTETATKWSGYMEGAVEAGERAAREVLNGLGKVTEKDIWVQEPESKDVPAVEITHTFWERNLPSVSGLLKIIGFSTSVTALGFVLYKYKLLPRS
# Target: recombinant human MAO-A (Homo sapiens, UniProt P21397)
# Experiment: Enzyme kinetics and mechanism of inhibition with MAO-A
# Format: biochemical
# Settings: Lineweaver-Burk analysis; reversibility from dialysis
row,SMILES,"Type of Inhibition, Monoamine oxidase-A"
1,"C#CCN(C)CCCOc1ccc(Cl)cc1Cl [Clorgyline, clorgyline, reference compound]",Mixed/Irreversible
2,"NNCCc1ccccc1 [Phenelzine, phenelzine, reference compound]",Mixed/Irreversible
